From US20100029554A1, “Composition and Methods for Treatment of Congestive Heart Failure” (Amylin Pharmaceuticals, Inc., priority 2006, published 2010)

Target: T1, GLP-1 receptors (RINm5f cell membranes) (Rattus norvegicus, UniProt P32301)
T1 construct: RINm5f cells expressing endogenous GLP-1 receptors; endogenous in cells; host or cells: RINm5f cell membranes
T1 sequence (P32301 22-463): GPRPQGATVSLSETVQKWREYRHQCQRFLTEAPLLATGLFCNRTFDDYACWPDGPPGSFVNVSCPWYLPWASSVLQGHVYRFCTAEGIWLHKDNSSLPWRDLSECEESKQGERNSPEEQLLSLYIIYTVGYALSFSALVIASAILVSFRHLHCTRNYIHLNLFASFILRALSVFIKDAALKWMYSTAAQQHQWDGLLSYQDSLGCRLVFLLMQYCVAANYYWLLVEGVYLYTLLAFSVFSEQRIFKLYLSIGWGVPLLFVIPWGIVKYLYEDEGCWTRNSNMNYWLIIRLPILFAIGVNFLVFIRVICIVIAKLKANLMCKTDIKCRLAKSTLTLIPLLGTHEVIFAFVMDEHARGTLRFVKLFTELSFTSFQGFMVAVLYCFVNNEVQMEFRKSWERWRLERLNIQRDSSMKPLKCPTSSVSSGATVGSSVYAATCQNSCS
Experiment: Receptor binding assay, RBA GLP (RIN)
Conditions: [125I] human GLP-1 displacement
Excerpt: The well contents are harvested onto 96 well glass fiber plates using a Perkin Elmer plate harvestor. Dried glass fiber plates are combined with scintillant and counted on a Perkin Elmer scintillation counter.

Row | IC50 [nM] | Substance
1 | 0.087 | GLP-1-(7-37)-GG(S)-2,6-diamino-1-(thiazolidin-3-y1)hexan-1-one amide (HAEGTFTSDVSSYLEGQAAKEFIAWLVKGRGGG; C-terminal DPP4 inhibitor moiety, amide) [Cmpd 4844]
2 | 0.1 | GLP-1-(7-37)-GG-(S)-2,6-diamino-1-(thiazolidin-2-cyano-3-y1)hexan-1-one amide (HAEGTFTSDVSSYLEGQAAKEFIAWLVKGRGGG; C-terminal cyano DPP4 inhibitor moiety, amide) [Cmpd 4845]
